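Test compounds were applied to cells in 96-well plates for 48 hours at 5 doses. The concentration for 50% growth inhibition is given as GI50. Definition used: TGI = concentration required for complete inhibition of growth.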
How the values were obtained:
Experiment in all cases: inhibition of tumour cell growth, NCI panel, 48 h
[1] = tested on: HCT-116 colon
[2] = tested on: SW-620 colon
[3] = tested on: BT-549 breast
[4] = tested on: HCC-2998 colon
[5] = tested on: PC-3 prostate
[6] = tested on: HOP-62 NSCLC
[7] = tested on: K-562 leukemia
[8] = tested on: NCI-H322M lung
[9] = tested on: U251 CNS
[10] = tested on: HS 578T breast
[11] = tested on: SR leukemia
[12] = tested on: EKVX NSCLC
[13] = tested on: NCI-H460 lung
[14] = tested on: NCI-H23 lung
[15] = tested on: NCI-H522 lung
[16] = tested on: MOLT-4 leukemia
[17] = tested on: HT29 colon
[18] = tested on: SK-MEL-2 melanoma
[19] = tested on: RXF 393 renal
[20] = tested on: MCF7 breast
[21] = tested on: SF-268 CNS
[22] = tested on: OVCAR-3 ovarian
[23] = tested on: SNB-19 CNS
[24] = tested on: ACHN renal
[25] = tested on: KM12 colon
[26] = tested on: SK-OV-3 ovarian
[27] = tested on: 786-0 renal
[28] = tested on: UACC-257 melanoma
[29] = tested on: CAKI-1 renal
[30] = tested on: UO-31 renal
[31] = tested on: OVCAR-4 ovarian
[32] = tested on: MDA-MB-231 breast
[33] = tested on: NCI/ADR-RES ovarian
[34] = tested on: SN12C renal
[35] = tested on: A549 NSCLC
[36] = tested on: UACC-62 melanoma
[37] = tested on: IGROV1 ovarian
[38] = tested on: HL-60(TB) leukemia
[39] = tested on: MALME-3M melanoma
[40] = tested on: RPMI-8226 leukemia
[41] = tested on: MDA-MB-435
[42] = tested on: TK-10 renal
[43] = tested on: MDA-N
[44] = tested on: OVCAR-5 ovarian
[45] = tested on: SF-295 CNS
[46] = tested on: T-47D breast
[47] = tested on: HOP-92 NSCLC
[48] = tested on: CCRF-CEM leukemia
[49] = tested on: A498 renal
[50] = tested on: DU-145 prostate
[51] = tested on: M14 melanoma
[52] = tested on: SF-539 CNS
[53] = tested on: SNB-75 CNS
[54] = tested on: OVCAR-8 ovarian
[55] = tested on: NCI-H226 lung
[56] = tested on: SK-MEL-28 melanoma
[57] = tested on: SK-MEL-5 melanoma
[58] = tested on: LOX IMVI melanoma
[59] = tested on: HCT-15 colon

Work on `COc1ccc2c3c1O[C@@H]1C4(OC)CCC5(CC4C(C)(O)C(C)(C)C)[C@H](C2)NCC[C@@]315` (stereo partly drawn) yielded a TGI [1] greater than 100 µM, a TGI [2] greater than 100 µM and a TGI [3] of 96.6 µM. It also gave a TGI [4] of 22.1 µM, a TGI [5] greater than 100 µM and a TGI [6] greater than 100 µM. It also gave a TGI [7] of 41.9 µM, a TGI [8] greater than 100 µM and a TGI [9] greater than 100 µM. It also gave a TGI [10] greater than 100 µM, a TGI [11] of 37.6 µM and a TGI [12] of 98.4 µM. The TGI [13] was 40.9 µM, the TGI [14] was greater than 100 µM and the TGI [15] was greater than 100 µM. The TGI [16] was 47.3 µM, the TGI [17] was 83 µM and the TGI [18] was 37.1 µM. For the same compound, the TGI [19] was 57.3 µM, the TGI [20] was greater than 100 µM and the TGI [21] was greater than 100 µM. The TGI [22] was greater than 100 µM, the TGI [23] was greater than 100 µM and the TGI [24] was greater than 100 µM. For the same compound, the TGI [25] was 53 µM, the TGI [26] was greater than 100 µM and the TGI [27] was greater than 100 µM. It also gave a TGI [28] of 38.7 µM, a TGI [29] greater than 100 µM and a TGI [30] greater than 100 µM. It also gave a TGI [31] greater than 100 µM, a TGI [32] greater than 100 µM and a TGI [33] of 66.3 µM. For the same compound, the TGI [34] was greater than 100 µM, the TGI [35] was greater than 100 µM and the TGI [36] was 74.2 µM. It also gave a TGI [37] greater than 100 µM, a TGI [38] of 38.1 µM and a TGI [39] of 54.2 µM. It also gave a TGI [40] of 36 µM, a TGI [41] of 88.5 µM and a TGI [42] greater than 100 µM. It also gave a TGI [43] greater than 100 µM, a TGI [44] greater than 100 µM and a TGI [45] greater than 100 µM. The TGI [46] was 46.6 µM, the TGI [47] was greater than 100 µM and the TGI [48] was 63.4 µM. For the same compound, the TGI [49] was greater than 100 µM, the TGI [50] was greater than 100 µM and the TGI [51] was 32.8 µM.
In the case of `O=[N+]([O-])C(/C=C(/Cl)[N+](=O)[O-])=C(Cl)Cl`, the GI50 [1] is reported as 52.5 µM, the TGI [1] is reported as greater than 100 µM and the GI50 [2] is reported as 37 µM. The TGI [2] was greater than 100 µM, the GI50 [3] was 22.6 µM and the TGI [3] was 65.6 µM. The GI50 [4] was greater than 100 µM, the TGI [4] was greater than 100 µM and the GI50 [5] was 47.3 µM. It also gave a TGI [5] greater than 100 µM, a GI50 [6] greater than 100 µM and a TGI [6] greater than 100 µM. For the same compound, the GI50 [7] was 30.1 µM, the TGI [7] was 83.8 µM and the GI50 [52] was 74.6 µM. The TGI [52] was greater than 100 µM, the GI50 [53] was 42.4 µM and the TGI [53] was greater than 100 µM. For the same compound, the GI50 [10] was 12.7 µM, the TGI [10] was 93.1 µM and the GI50 [11] was 34 µM. It also gave a TGI [11] greater than 100 µM, a GI50 [54] of 44.1 µM and a TGI [54] greater than 100 µM. For the same compound, the GI50 [12] was greater than 100 µM, the TGI [12] was greater than 100 µM and the GI50 [13] was greater than 100 µM. For the same compound, the TGI [13] was greater than 100 µM, the GI50 [14] was 35.5 µM and the TGI [14] was greater than 100 µM. The GI50 [16] was 43.3 µM, the TGI [16] was greater than 100 µM and the GI50 [17] was 31.4 µM. It also gave a TGI [17] greater than 100 µM, a GI50 [19] of 27 µM and a TGI [19] of 84.6 µM. The GI50 [20] was 27.4 µM, the TGI [20] was 69.5 µM and the GI50 [55] was greater than 100 µM. The TGI [55] was greater than 100 µM, the GI50 [21] was 31.2 µM and the TGI [21] was greater than 100 µM. For the same compound, the GI50 [22] was 21.9 µM, the TGI [22] was 49.8 µM and the GI50 [23] was 4.15 µM. For the same compound, the TGI [23] was 68.6 µM, the GI50 [24] was 36.1 µM and the TGI [24] was greater than 100 µM. For the same compound, the GI50 [25] was greater than 100 µM, the TGI [25] was greater than 100 µM and the GI50 [26] was greater than 100 µM. For the same compound, the TGI [26] was greater than 100 µM, the GI50 [27] was 17.9 µM and the TGI [27] was 32.2 µM. For the same compound, the GI50 [28] was 34.8 µM, the TGI [28] was greater than 100 µM and the GI50 [29] was 17.6 µM. It also gave a TGI [29] of 33.1 µM, a GI50 [30] greater than 100 µM and a TGI [30] greater than 100 µM. For the same compound, the GI50 [56] was 34.5 µM, the TGI [56] was greater than 100 µM and the GI50 [31] was 37.8 µM. The TGI [31] was greater than 100 µM, the GI50 [32] was 65.4 µM and the TGI [32] was greater than 100 µM. For the same compound, the GI50 [33] was 27.1 µM, the TGI [33] was 94.1 µM and the GI50 [34] was 47 µM. It also gave a TGI [34] greater than 100 µM, a GI50 [35] greater than 100 µM and a TGI [35] greater than 100 µM. The GI50 [36] was 36.1 µM, the TGI [36] was greater than 100 µM and the GI50 [38] was 20.8 µM. For the same compound, the TGI [38] was 43.5 µM, the GI50 [57] was greater than 100 µM and the TGI [57] was greater than 100 µM. For the same compound, the GI50 [39] was 17.8 µM, the TGI [39] was 39.2 µM and the GI50 [58] was 20.9 µM. It also gave a TGI [58] of 36.3 µM, a GI50 [40] of 34 µM and a TGI [40] greater than 100 µM. The GI50 [42] was 98.2 µM, the TGI [42] was greater than 100 µM and the GI50 [43] was 45.5 µM. It also gave a TGI [43] greater than 100 µM, a GI50 [59] of 36.5 µM and a TGI [59] greater than 100 µM. It also gave a GI50 [44] of 79.4 µM, a TGI [44] greater than 100 µM and a GI50 [45] greater than 100 µM. The TGI [45] was greater than 100 µM, the GI50 [46] was 41.8 µM and the TGI [46] was greater than 100 µM. For the same compound, the GI50 [49] was 71 µM, the TGI [49] was greater than 100 µM and the GI50 [50] was greater than 100 µM. For the same compound, the TGI [50] was greater than 100 µM, the GI50 [51] was greater than 100 µM and the TGI [51] was greater than 100 µM.

Reference: PubChem BioAssay (NCI)
